Eight compounds from patent publication US7576105B2, “Benzyl substituted (piperidin-4-yl)aminobenzamido derivatives” (priority 2002, dated 2009) can be followed below.

Chains of the proteins cited; added tags and fusions are not shown.
UniProt P33535, whole entry: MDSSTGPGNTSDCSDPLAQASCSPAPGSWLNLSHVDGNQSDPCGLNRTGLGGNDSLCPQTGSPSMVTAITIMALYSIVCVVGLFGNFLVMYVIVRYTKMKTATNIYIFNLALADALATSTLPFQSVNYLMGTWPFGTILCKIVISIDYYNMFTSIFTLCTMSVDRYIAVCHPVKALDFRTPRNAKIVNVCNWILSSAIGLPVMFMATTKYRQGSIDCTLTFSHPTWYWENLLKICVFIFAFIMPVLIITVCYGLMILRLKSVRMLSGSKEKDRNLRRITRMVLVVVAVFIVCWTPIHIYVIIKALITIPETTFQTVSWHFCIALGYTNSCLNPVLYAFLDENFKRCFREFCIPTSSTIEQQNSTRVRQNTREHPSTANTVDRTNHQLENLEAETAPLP

One assay concerns the target δ-opioid receptor (Rattus norvegicus, UniProt P33533). Nature of the assay: Rat brain δ-opioid receptor binding assay.
The target of a further assay is μ-opioid receptor (Rattus norvegicus, UniProt P33535). In words: Rat brain μ-opioid receptor binding assay.

pKi: −log10 of the molar value. Some results are limits rather than exact numbers.

Consider `CCCN1CCC(N(Cc2cccc(Cl)c2)c2ccc(C(=O)N(CC)CC)cc2)CC1`, for which the pKi (commonly the Ki on a negative log10 scale, so that one unit is a factor of ten) at δ-opioid receptor was 7.30; at μ-opioid receptor, 5.67.
For the compound `CCCN1CCC(N(Cc2ccccc2OC)c2ccc(C(=O)N(CC)CC)cc2)CC1`, the “δ-Opioid Receptor Binding % Inhibition @ 1 μM” value at δ-opioid receptor (1 μM test compound, rat forebrain particulate preparation, [3H]DPDPE, 25° C.) is given as 17%.
Compound `CCCN1CCC(N(Cc2cccnc2)c2ccc(C(=O)N(CC)CC)cc2)CC1` showed a pKi on δ-opioid receptor of 6.22.
On the same count and under the same terms, the figure for `CCN(CC)C(=O)c1ccc(N(Cc2ccccc2)C2CCN(C)CC2)cc1` is 6.96.
`CCCN1CCC(N(Cc2cccc(O)c2)c2ccc(C(=O)N(CC)CC)cc2)CC1` [Compound 2, N,N-Diethyl-4-[3-hydroxybenzyl(1-propylpiperidin-4-yl)amino]benzamide]: the pKi at δ-opioid receptor is 7.84; at μ-opioid receptor, 6.19.
Take `CCCN1CCC(N(Cc2ccccc2)c2ccc(C(=O)N(CC)CC)cc2)CC1` [Compound 7, N,N-Diethyl-4-[benzyl(1-propylpiperidin-4-yl)amino]benzamide]: the pKi at δ-opioid receptor was 7.58; on μ-opioid receptor, 6.05.
In the same order, the values of `CCN(CC)C(=O)c1ccc(N(Cc2ccccc2)C2CCNCC2)cc1` [Compound 8, N,N-Diethyl-4-[benzyl(piperidin-4-yl)amino]benzamide] are 7.15 and at most 5.00.
In the same order, the values of `C=CCN1CCC(N(Cc2ccccc2)c2ccc(C(=O)N(CC)CC)cc2)CC1` [Compound 9, N,N-Diethyl-4-[benzyl(1-allylpiperidin-4-yl)amino]benzamide] are 7.14 and at most 5.00.
